Measured values as given in PubChem BioAssay (Tox21).
Only a part is listed here, and it is no random draw. Inconclusive results are not listed. Entries that show only a call come without a potency. The source made the active and inactive calls. The call rests on the fitted dose curve.
Potency means the concentration at half of the fitted maximal effect.

By UniProt entry, the sequences of proteins in these tests, tags left out.
UniProt P28223, whole entry: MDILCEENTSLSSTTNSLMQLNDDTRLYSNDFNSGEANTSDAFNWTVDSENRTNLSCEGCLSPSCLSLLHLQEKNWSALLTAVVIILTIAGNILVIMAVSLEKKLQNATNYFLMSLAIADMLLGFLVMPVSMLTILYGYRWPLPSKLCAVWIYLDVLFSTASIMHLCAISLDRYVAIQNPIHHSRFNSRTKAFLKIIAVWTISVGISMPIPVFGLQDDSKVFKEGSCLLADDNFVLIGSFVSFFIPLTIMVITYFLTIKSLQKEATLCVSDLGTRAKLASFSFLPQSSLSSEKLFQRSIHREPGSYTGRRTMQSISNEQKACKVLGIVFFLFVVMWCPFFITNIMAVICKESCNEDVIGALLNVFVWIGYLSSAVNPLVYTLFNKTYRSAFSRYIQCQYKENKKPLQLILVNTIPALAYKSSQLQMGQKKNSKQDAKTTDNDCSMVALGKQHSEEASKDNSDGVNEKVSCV

What follows are compounds tested against 5-hydroxytryptamine receptor 2A (Homo sapiens) (UniProt P28223) (assay: 5-hydroxytryptamine receptor 2A (HTR2A) small molecule antagonists, cell-based qHTS assay (AID 1963586; further: nearly all actives have a fitted effect of over 45% in size)). Conditions: HTR2A-CHO cells, DOI-induced calcium flux, fluorescence; series mostly up to 61.5 µM.
Source text: National Center for Advancing Translational Sciences [NCATS]
Division of Preclinical Innovation [DPI]
U.S. Environmental Protection Agency [EPA]
National Institutes of Environmental Health Sciences [NIEHS]
National Toxicology Program [NTP]
U.S. Food and Drug Administration [FDA]
The HTR2A receptor is a subtype of the 5-HT2 receptor that belongs to the serotonin receptor family and is a G protein-coupled receptor (GPCR). The HTR2A-CHO cell line stably expressing human 5-hydroxytryptamine receptor 2A (HTR2A) can be used for screening antagonists of interactions between 5-HT2 and its ligands. The HTR2A-CHO calcium flux assay is a homogeneous fluorescence-based assay for detecting the intracellular calcium level using FDSS kinetic plate reader system.
Tox21 Assay Protocol Summary:
HTR2A-CHO cells were dispensed at 2000 cells/3uL/well in 1536-well black-clear bottom plates using a Multidrop Dispenser. After the assay plates were incubated at a 37 C/5% CO2 incubator for 18 h, 3 uL of Dye Loading Buffer was transferred to the assay plate by a Flying Reagent Dispenser. The assay plates were incubated at 37 C for 1h. For antagonist mode, 23 nL of compounds dissolved in DMSO, positive controls or DMSO only was transferred to the assay plate by a pin tool. After 5 min incubation at room temperature, 1.5 uL of 4-Iodo-2,5-dimethoxy-alpha-methylbenzeneethanamine hydrochloride (DOI) at 4nM was added to each well. The fluorescence intensity in the plates was measured using FDSS 7000EX kinetic plate reader for 3 min at 1 sec intervals.
`C/C1=C2N=C(/C=C3N=C(/C(C)=C4\[N-][C@@](C)([C@@H]5N=C1[C@](C)(CCC(=O)NC[C@@H](C)OP(=O)([O-])O[C@H]1[C@@H](O)[C@@H](n6cnc7cc(C)c(C)cc76)O[C@@H]1CO)[C@H]5CC(N)=O)[C@@](C)(CC(N)=O)[C@@H]4CCC(N)=O)[C@@](C)(CC(N)=O)[C@@H]\3CCC(N)=O)C(C)(C)[C@@H]/2CCC(N)=O.[C-]#N.[Co+3]` was tested, and the Potency was “inactive”.
With `CC(C)N(CCO)C(C)C` the Potency was “inactive”.
With `Nc1cc([N+](=O)[O-])cc([N+](=O)[O-])c1O` the Potency was “inactive”.
For `CCN(CC)CCCl`, the Potency was “inactive”.
With `CN(C)CCCl` the Potency was “inactive”.
With `COP(C)(=O)OC` the Potency was “inactive”.
In the case of `O=[N+]([O-])[O-].[NH4+]`, the Potency is reported as “inactive”.
With `CCOP(=O)(CC)Oc1ccc([N+](=O)[O-])cc1` (configuration not stated) the Potency was “inactive”.
`OCCSCCO` was tested, and the Potency was “inactive”.
For `CP(=O)(O)OCCC[Si](O)(O)O`, the Potency was “inactive”.
For `N=C(N)N[N+](=O)[O-]`, the Potency was “inactive”.
In the case of `Cc1ccc([N+](=O)[O-])c([N+](=O)[O-])c1`, the Potency is reported as “inactive”.
With `O=[N+]([O-])c1cccc([N+](=O)[O-])c1` the Potency was “inactive”.
In the case of `[NH4+].[O-][Cl+3]([O-])([O-])[O-]`, the Potency is reported as “inactive”.
With `Cc1ccc([N+](=O)[O-])cc1[N+](=O)[O-]` the Potency was “inactive”.
`COc1ccc([N+](=O)[O-])cc1[N+](=O)[O-]` was tested, and the Potency was “inactive”.
In the case of `O=[N+]([O-])OCC(CO[N+](=O)[O-])(CO[N+](=O)[O-])CO[N+](=O)[O-]`, the Potency is reported as “inactive”.
In the case of `N#CBr`, the Potency is reported as “inactive”.
In the case of `CC(C)OP(C)(=O)OC(C)C`, the Potency is reported as “inactive”.
In the case of `CCOP(=O)(CC)OCC`, the Potency is reported as “inactive”.
In the case of `Cc1c([N+](=O)[O-])cccc1[N+](=O)[O-]`, the Potency is reported as “inactive”.
For `Cc1cccc([N+](=O)[O-])c1[N+](=O)[O-]`, the Potency was active: 11.2 µM.
